{
  "source": "paper PMC5735092",
  "about": "(Scientific Reports, 2017)",
  "test_system": "Vero cells",
  "experiment": "Cytotoxicity, CellGlo Cell Viability assay",
  "settings": "read-out: CC50 ± SD, 24 h",
  "data": [
    {"smiles": "CC(OC(C)(C)C)C(NC(=O)C(CSC(C)(C)C)NC(=O)C(CCC(=O)OC(C)(C)C)NC(=O)OCC1c2ccccc2-c2ccccc21)C(=O)O", "note": "(stereo not shown)", "values": [
      {"measurement": "CC50", "value": "> 100", "unit": "µM"}
    ]}
  ]
}
